Apparent affinities of Ab-95 variants for a coronavirus HR2 peptide

From the AlphaSeq antibody data of Engelhart et al. 2022 (doi:10.1038/s41597-022-01779-4), copy in the FLAb collection.

All variants were tested on one target, the spike HR2 peptide PDVDLGDISGINAS (SARS-CoV-2).

Ab-95 is the parent antibody, in scFv form: VH, then the linker GGGGSGGGGSGGGGS, then VL. The heavy chain is unchanged in all variants.
VH: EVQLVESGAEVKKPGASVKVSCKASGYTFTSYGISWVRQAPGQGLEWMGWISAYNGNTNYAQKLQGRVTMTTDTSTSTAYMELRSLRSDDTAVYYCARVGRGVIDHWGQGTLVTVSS
VL: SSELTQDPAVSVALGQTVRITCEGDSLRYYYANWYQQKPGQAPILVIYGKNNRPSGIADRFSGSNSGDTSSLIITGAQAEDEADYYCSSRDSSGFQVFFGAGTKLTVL

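Phage display of a naive human antibody library on the peptide gave the parent. AAYL52 was designed without a model: most single CDR substitutions and a random sample of double and triple ones. AlphaSeq pools MATa yeast showing the antibodies with MATalpha yeast showing the peptide. Pairs that bind mate more often; barcode pairs of the diploids are counted by sequencing. Scores were corrected for input abundance and mapped to Kd with protein pairs of known affinity run in the same pool. Mating was done three times.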

The parent's light chain CDRs are EGDSLRYYYAN, GKNNRPS, SSRDSSGFQVF; each variant's own CDRs replace them letter for letter. All variants listed here change N33 of the VL, counted from its first residue. Values are apparent Kd, the geometric mean of the replicates that gave a signal; lower means stronger binding. A pair that was not seen in any replicate is written "no signal"; this usually means weak binding, but a binder can also be missed. As a blank, each scFv also met three strains without target: over library AAYL52, 28% of these pairings were detected, typically at 8.2 µM and seldom below 800 nM.

CDR-L1	CDR-L2	CDR-L3	apparent Kd	seen in
EGDYLRVYYAK	GKNNRPS	SSRDSSGFQVF	2.1 µM	2/3
EGDSLRYYYAP	CKNNRPS	SSRDSIGFQVF	130 µM	1/3
EGDSLRYYYAY	GKNNRPS	SSRDSSGFQVC	27 µM	2/3
EGDSLRYYYAP	TKNNIPS	SSRDSSGFQVF	4.9 µM	2/3
EGDSLRYYYAS	GKTNRPS	SSRDSSGFWVF	22 µM	3/3
EDDSLRYWYAY	GKNNRPS	SSRDSSGFQVF	no signal	0/3
EGDSLDYYYAW	GKFNRPS	SSRDSSGFQVF	8.9 µM	3/3
EGDRLRYYYTC	GKNNRPS	SSRDSSGFQVF	440 nM	3/3
EGDVLRYYYAW	GKHNRPS	SSRDSSGFQVF	14 µM	2/3
EWDSLRYYYAL	GKNNRWS	SSRDSSGFQVF	3.0 µM	3/3
EQDSLRYYYAK	GKNNNPS	SSRDSSGFQVF	1.8 µM	1/3
EGESLRYYYAI	GKNNNPS	SSRDSSGFQVF	3.3 µM	1/3
EGDSGRYYYAD	GKNYRPS	SSRDSSGFQVF	23 µM	2/3
EGDSLRYYYAL	HKNNYPS	SSRDSSGFQVF	no signal	0/3
EGDSLRYYYAF	GKNNRPG	SSRHSSGFQVF	91 nM	3/3
EGDSLRYYYAG	GHNNRPS	SSRDSSGFQVF	1.2 µM	3/3
EGVSLRYYYAC	GKNNRPS	SSRWSSGFQVF	100 µM	3/3
EGDSLRWYYPA	GKNNRPS	SSRDSSGFQVF	1.2 µM	1/3
EGDSLNIYYAR	GKNNRPS	SSRDSSGFQVF	4.2 µM	2/3
EGDSLRYYYAD	GKNNRPS	SSRLSSGDQVF	no signal	0/3
EGDSLRYYYAY	GKNNRPS	SFRDSSGFQVN	no signal	0/3
EGDSLRYYYAF	GKNNRPS	WQRDSSGFQVF	no signal	0/3
EGDMLRYYYAQ	GKNNRPS	SSRDSSLFQVF	2.1 µM	3/3
EGESLRYYYAG	GKNNRPS	SSRDSSGFEVF	1.1 µM	3/3
EGDFLRYYYAM	GKGNRPS	SSRDSSGFQVF	3.8 µM	1/3
EGDKLRYYYAY	GKNNRPS	SSRDSSGFKVF	420 nM	3/3
EGDSLRYYYAW	GKNNRPS	SSRDSSGFVVF	no signal	0/3
EGDSLRYQYAT	DKNNRPS	SSRDSSGFQVF	440 nM	3/3
EGDSLRYYYAC	DKNNRPS	SSRCSSGFQVF	610 nM	3/3
EGDSLRYYYAY	GKNNRPS	SSANSSGFQVF	2.6 µM	1/3
EGDSLRYYYAE	GKNNRPS	SSRASSGWQVF	70 µM	2/3
EGDSLRYYYAY	GKNNGPS	SSRTSSGFQVF	55 µM	1/3
EGDSLRYYYAH	GKNWRPS	SSKDSSGFQVF	95 nM	3/3
EGDSLRYYYAE	GKNNRPS	SSRDVSGFQVF	17 µM	2/3
NGDSLRYYYAV	GKNNRPS	SSRDSSGFQVF	21 µM	2/3
EGDSMRYYYAF	GKNNRFS	SSRDSSGFQVF	5.1 µM	1/3
EGDSLIYYYAQ	GKNNRPS	SSRDSSGFQVF	3.9 µM	3/3
EGDSLRYYIAR	EKNNRPS	SSRDSSGFQVF	1.2 µM	1/3
EGDSLRGRYAQ	GKNNRPS	SSRDSSGFQVF	230 nM	3/3
EGKSLRYYYAQ	GKNNRPS	SSRDSSGFQVF	1.2 µM	2/3
EGDSLRYYYAV	GKNNRPS	SSRDSSGGQAF	760 nM	1/3
EGDSLRYYYAE	GMNNRPS	SSRDSSGIQVF	16 µM	1/3
EGDSLRYYYAT	GWNNKPS	SSRDSSGFQVF	no signal	0/3
KGDSLRYYYAF	GKNNRPS	SSRDSHGFQVF	52 µM	1/3
EGDSLRYYYAC	GKNNRPH	SSRDSSGFQVF	4.8 µM	3/3
EGDSLWYTYAT	GKNNRPS	SSRDSSGFQVF	470 nM	1/3
TGDSLRYYYAF	GKNNRSS	SSRDSSGFQVF	12 µM	3/3

Excerpt, the final 4 entries:

| CDR-L1 | CDR-L2 | CDR-L3 | apparent Kd | seen in |
|---|---|---|---|---|
| KGDSLRYYYAF | GKNNRPS | SSRDSHGFQVF | 52 µM | 1/3 |
| EGDSLRYYYAC | GKNNRPH | SSRDSSGFQVF | 4.8 µM | 3/3 |
| EGDSLWYTYAT | GKNNRPS | SSRDSSGFQVF | 470 nM | 1/3 |
| TGDSLRYYYAF | GKNNRSS | SSRDSSGFQVF | 12 µM | 3/3 |

Parent in this assay: reference entry 200 nM, copy in this library 180 nM.